Here are results for two compounds from ChEMBL document CHEMBL3868608, “Discovery of 1,3-diethyl-7-methyl-8-(phenoxymethyl)-xanthine derivatives as novel adenosine A1 and A2A receptor antagonists” (Bioorg Med Chem Lett, 2016).

For this assay, the system named is brain. Briefly: Selectivity index, ratio of Ki for adenosine receptor A2A in Sprague-Dawley rat striatal membranes to Ki for adenosine receptor A1 in Sprague-Dawley rat whole brain cell membranes. Format: cell-based.

For `CCn1c(=O)c2c(nc(COc3ccc(OC)cc3)n2C)n(CC)c1=O`, the Ratio Ki was determined as 0.2.

With `CCn1c(=O)c2c(nc(COc3ccc(Br)cc3)n2C)n(CC)c1=O`, the Ratio Ki worked out at 5.2.
